The source of these data is patent US20240209034A1 (priority 2021, published 2024).

Amino acid sequences for entries named in this document (tags omitted). Residues count along the entry.
UniProt P06756, 891-1048 partner limits assumed: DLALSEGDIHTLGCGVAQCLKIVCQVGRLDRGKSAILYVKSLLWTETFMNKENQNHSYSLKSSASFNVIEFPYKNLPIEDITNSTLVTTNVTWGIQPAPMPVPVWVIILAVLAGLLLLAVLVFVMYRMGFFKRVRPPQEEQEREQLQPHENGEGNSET
UniProt P06756, 31-889 limits assumed: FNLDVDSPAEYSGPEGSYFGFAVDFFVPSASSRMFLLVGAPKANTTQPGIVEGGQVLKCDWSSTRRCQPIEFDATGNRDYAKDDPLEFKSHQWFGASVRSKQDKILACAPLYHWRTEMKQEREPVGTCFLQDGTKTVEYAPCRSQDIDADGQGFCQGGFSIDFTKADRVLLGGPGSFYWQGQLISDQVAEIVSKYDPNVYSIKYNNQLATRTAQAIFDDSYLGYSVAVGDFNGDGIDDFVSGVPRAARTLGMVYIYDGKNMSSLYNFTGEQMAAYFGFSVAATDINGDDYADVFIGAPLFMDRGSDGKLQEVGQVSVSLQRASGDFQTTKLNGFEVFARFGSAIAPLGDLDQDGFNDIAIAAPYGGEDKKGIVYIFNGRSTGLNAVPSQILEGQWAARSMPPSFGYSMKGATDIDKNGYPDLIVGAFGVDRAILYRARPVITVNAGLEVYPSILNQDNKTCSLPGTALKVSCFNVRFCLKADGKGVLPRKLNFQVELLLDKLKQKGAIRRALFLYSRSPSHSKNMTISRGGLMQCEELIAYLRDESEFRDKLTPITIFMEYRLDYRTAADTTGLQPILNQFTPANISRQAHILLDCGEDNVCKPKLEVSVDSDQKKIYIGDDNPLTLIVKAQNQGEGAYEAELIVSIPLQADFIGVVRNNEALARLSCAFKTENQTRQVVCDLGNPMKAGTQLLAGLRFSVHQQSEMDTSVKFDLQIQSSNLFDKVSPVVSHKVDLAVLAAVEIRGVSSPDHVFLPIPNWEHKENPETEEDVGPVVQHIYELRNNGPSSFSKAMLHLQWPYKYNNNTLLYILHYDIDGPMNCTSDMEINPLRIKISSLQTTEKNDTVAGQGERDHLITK
UniProt P06756, 891-992 partner limits assumed: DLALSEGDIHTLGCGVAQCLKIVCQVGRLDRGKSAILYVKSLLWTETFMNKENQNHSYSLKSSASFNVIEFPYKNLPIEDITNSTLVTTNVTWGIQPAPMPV
UniProt P18564, 22-788 limits assumed: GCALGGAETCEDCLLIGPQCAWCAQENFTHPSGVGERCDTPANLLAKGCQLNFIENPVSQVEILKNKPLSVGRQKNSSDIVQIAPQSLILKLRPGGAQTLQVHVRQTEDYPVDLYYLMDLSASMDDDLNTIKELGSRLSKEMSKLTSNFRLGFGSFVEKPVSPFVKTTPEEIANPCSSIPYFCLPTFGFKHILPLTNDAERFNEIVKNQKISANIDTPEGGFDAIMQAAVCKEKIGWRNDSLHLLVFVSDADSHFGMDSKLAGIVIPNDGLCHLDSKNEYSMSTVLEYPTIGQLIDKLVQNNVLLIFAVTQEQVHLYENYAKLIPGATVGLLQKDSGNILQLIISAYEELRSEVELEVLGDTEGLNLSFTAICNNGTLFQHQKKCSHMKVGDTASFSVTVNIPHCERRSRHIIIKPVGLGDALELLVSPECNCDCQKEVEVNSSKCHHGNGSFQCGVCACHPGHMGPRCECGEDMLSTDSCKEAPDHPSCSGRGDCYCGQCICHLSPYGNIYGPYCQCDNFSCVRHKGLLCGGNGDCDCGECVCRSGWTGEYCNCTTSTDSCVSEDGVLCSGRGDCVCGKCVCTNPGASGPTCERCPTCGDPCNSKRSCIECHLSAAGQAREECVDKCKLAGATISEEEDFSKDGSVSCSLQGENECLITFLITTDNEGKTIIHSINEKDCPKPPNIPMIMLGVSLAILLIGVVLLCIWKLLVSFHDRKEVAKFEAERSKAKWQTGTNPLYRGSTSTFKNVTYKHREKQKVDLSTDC
UniProt P18564, 22-707 limits assumed: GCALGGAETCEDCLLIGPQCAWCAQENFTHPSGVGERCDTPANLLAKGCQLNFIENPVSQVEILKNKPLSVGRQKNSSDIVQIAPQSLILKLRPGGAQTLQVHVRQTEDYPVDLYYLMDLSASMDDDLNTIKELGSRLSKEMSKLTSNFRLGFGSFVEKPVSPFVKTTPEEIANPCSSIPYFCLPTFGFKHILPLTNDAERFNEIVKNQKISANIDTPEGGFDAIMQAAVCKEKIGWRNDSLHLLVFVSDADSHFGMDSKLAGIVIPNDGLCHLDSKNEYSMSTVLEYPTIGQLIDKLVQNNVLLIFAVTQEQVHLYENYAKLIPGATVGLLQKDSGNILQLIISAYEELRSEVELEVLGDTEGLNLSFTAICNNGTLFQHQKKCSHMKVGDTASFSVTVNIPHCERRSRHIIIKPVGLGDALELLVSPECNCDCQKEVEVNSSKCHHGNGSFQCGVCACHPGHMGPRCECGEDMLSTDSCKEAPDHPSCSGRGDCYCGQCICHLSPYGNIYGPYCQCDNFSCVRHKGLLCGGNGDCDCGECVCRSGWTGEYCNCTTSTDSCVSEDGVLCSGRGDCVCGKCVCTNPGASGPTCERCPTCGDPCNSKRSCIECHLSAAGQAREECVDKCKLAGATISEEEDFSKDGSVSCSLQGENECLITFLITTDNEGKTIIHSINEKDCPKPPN

In test [1] the target is integrin αvβ6 (K562 αvβ6:mCherry cells) (Homo sapiens, UniProt P06756+P18564). The following applies: read-out: apparent binding affinity (KD).
Another test has as its target αvβ6 integrin (Homo sapiens, UniProt P06756+P18564). The following applies: cited from earlier work.

Consider `CC(C)C[C@H](NC(=O)[C@H](CC(=O)O)NC(=O)CNC(=O)[C@H](CCCNC(=N)N)NC(=O)[C@H](CC(C)C)NC(=O)[C@H](CC(N)=O)NC(=O)[C@@H]1CCCN1C(=O)[C@@H](NC(=O)[C@H](C)NC(=O)[C@H](CC(N)=O)NC(=O)CCCC[C@@H]1SC[C@@H]2NC(=O)N[C@@H]21)C(C)C)C(=O)N[C@@H](CCC(N)=O)C(=O)N[C@H](C(=O)N[C@@H](CC(C)C)C(=O)N[C@@H](C)C(=O)N[C@@H](CCC(N)=O)C(=O)N[C@@H](CCCCN)C(=O)N[C@H](C(=O)N[C@@H](C)C(=O)N[C@@H](CCCNC(=N)N)C(=O)N[C@H](C(=O)N[C@@H](CCCCN)C(N)=O)[C@@H](C)O)C(C)C)C(C)C` [Peptide A20FMDV2, reference compound], for which, in test [1], the Kd was 63.1 ± 20.6 nM. For the same compound, at αvβ6 integrin, the “binding affinity reported previously” value was “single digit nanomolar”.
